# Measured values from US20250326814A1, “MODIFIED OXYNTOMODULIN AND METHODS OF USE THEREOF” (OPKO BIOLOGICS LTD., priority 2024, published 2025).
# Legend:
# [1] = target: glucagon receptor (GCGR); test: cell-based or functional assay
# [2] = target: glucagon-like peptide-1 receptor (GLP-1R); test: cell-based or functional assay
substance,measurement,setting,value
OPK-88003 API (SEQ ID NO: 3 where Xaa38=Cys-PEG20 and Xaa39=Cys-PEG20) (peptide),"EC50 (nM) GCGR, glucagon activity in vitro",[1],16.8 nM
same,% EC50 compare to KPI (GLP1),[2],10.8%
